Experimental data published in BindingDB's records for 16116659 (University of Bristol, 2005).

The chains behind the UniProt entries cited, without tags or fusion partners.
UniProt P45568, whole entry, looked up: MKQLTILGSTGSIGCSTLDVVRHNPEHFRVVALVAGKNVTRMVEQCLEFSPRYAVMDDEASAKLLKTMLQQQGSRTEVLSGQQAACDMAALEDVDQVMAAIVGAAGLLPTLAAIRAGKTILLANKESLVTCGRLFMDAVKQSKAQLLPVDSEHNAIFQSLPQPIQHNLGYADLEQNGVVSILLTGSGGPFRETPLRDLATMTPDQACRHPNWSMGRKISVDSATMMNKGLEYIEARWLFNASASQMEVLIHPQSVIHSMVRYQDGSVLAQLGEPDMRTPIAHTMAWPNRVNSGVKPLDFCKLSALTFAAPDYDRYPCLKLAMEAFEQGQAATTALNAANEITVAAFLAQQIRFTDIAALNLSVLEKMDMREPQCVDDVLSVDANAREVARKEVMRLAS

Target: 1-deoxy-D-xylulose 5-phosphate reductoisomerase (Escherichia coli (strain K12), UniProt P45568)
Assay: Inhibition Assay
Conditions: pH 8

In the case of `CCP(=O)(O)O`, the Ki is reported as 18 mM.
